Measured values reported in article PMC7108782, “Direct interaction of metastasis-inducing S100P protein with tubulin causes enhanced cell migration without changes in cell adhesion” (Biochemical Journal, 2020).

Tests used:
[1] = target: T1, S100P (Homo sapiens, UniProt P25815); experiment: Isothermal titration calorimetry (ITC) of tubulin peptides with S100P; type: binding; conditions: 25°C
T1 construct: made in house
T1 sequence (P25815 1-95): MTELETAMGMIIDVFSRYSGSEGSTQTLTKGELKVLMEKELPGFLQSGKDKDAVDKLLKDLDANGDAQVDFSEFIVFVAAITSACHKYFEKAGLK
Description: Measurements were conducted using an ITC-200 instrument (Microcal) as previously described. ITC titrations were performed in 20 mM MES pH 6.1, 50 mM NaCl, 1.0 mM TCEP and 5 mM CaCl2 (for Ca^2+-form of S100P) at 25°C. Due to low solubility, peptide solutions at concentrations of 10–400 µM were placed in the cell and titrated with S100P at concentrations of 0.5–3 mM, depending on the peptide concentration. Data were integrated and fitted to a single site binding equation using Origin 7 software which was included with the ITC module (Malvern Microcal, Malvern, U.K.).

[2] = target: T1, S100P; experiment: NMR 1H,15N HSQC of 15N-labelled S100P with tubulin peptides; type: binding; conditions: 0.1 mM 15N-S100P + equimolar peptide, 40°C, 20 mM MES, 50 mM NaCl, 0.5 mM CaCl2, 2 mM TCEP, pH 6.1, 800 MHz
[3] = test system: S100P - α,β-tubulin; experiment: SPR inhibition of S100P binding to α,β-tubulin-coated chip by peptides; parameters: species or system human; conditions: 20 µM peptide, 1 µM S100P
Description: For SPR binding assays, α,β-tubulin proteins described earlier were immobilised on a carboxymethylated dextran surface of a CM5 chip using BS^3 for use in Biocore X100. Recombinant S100P produced as described previously was used as a ligand in different concentrations at 20, 50, 100, 200, 1000, 2000 nM for calculation of the equilibrium dissociation constant (Kd) from the association/dissociation rate constants and from the extent of binding near equilibrium (Supplementary Table S2), as described previously. To detect the effects of tubulin peptides on the interaction of tubulin, different concentrations of tagged and untagged peptides were mixed with 1 µM S100P first and the mixtures were then applied to the tubulin-coated chip. The relative changes in kinetics and binding extents with different peptides were calculated using software provided by the manufacturer.

[4] = test system: HeLa-A19 cells; experiment: Boyden chamber cell migration, S100P-inducible HeLa-A19; type: cell-based, human; conditions: NMIIA-containing HeLa cells, 20 µM
Text: Cell migration rate (%) = M/G × 100.

Kd ([1]; 20 mM MES pH 6.1, 50 mM NaCl, 5 mM CaCl2, best-fit curve, read-out: Kd (Figure 7B)): < 10 µM
TΔS ([1]; Figure 7B, pH 6.1): 4.0 kcal/mol
enthalpy change (ΔH) ([1]; Figure 7B, pH 6.1): -4.1 kcal/mol
inhibition of extent of binding of S100P to α,β-tubulin [3]: over 50%
SMILES: CC[C@H](C)[C@H](NC(=O)[C@H](CCCNC(=N)N)NC(=O)[C@H](CC(=O)O)NC(=O)[C@H](CC(C)C)NC(=O)[C@@H](NC(=O)[C@H](CC(C)C)NC(=O)[C@@H](N)CC(=O)O)C(C)C)C(=O)N[C@@H](CCCNC(=N)N)C(=O)N[C@@H](CCCCN)C(=O)N[C@@H](CC(C)C)C(=O)N[C@@H](C)C(=O)N[C@@H](CC(=O)O)C(=O)N[C@@H](CCC(N)=O)C(=O)N[C@@H](CS)C(=O)N[C@H](C(=O)NCC(=O)N[C@@H](CC(C)C)C(=O)N[C@@H](CCC(N)=O)C(=O)NCC(=O)N[C@@H](Cc1ccccc1)C(=O)N[C@@H](CC(C)C)C(=O)N[C@H](C(=O)N[C@@H](Cc1ccccc1)C(=O)N[C@@H](Cc1c[nH]cn1)C(=O)N[C@@H](CO)C(=O)N[C@@H](Cc1ccccc1)C(=O)NCC(=O)NCC(=O)NCC(=O)N[C@H](C(=O)O)[C@@H](C)O)C(C)C)[C@@H](C)O [DLV]
effect on HSQC spectra of S100P / binding [2]: caused significant chemical shift changes
block of S100P-induced increase in migration [4]: 54%
